Here are results for one substance from patent US20220202895A1, “PULSATIVE GNRH ADMINISTRATION FOR TREATING COGNITIVE DISORDERS” (INSERM (Institut National de la Santé et de la Recherche …, priority 2019, published 2022).

Assay [1] relates to Ts65Dn mice. The experiment in a line: Novel object recognition test (recognition memory). As to conditions: constant (continuous) infusion.
Assay [2] has as its system Ts65Dn mice. In words: Habituation/dishabituation test (ability to differentiate odors). As to conditions: constant (continuous) infusion.

Take “LUTRELEF®: a GnRH peptide of clinic use to restore fertility in patients with hypogonadotropic hypogonadism; GnRH acetate/diacetate (gonadorelin), Ferring Pharmaceuticals”: the cognitive performance entry in the assay with Ts65Dn mice [1] is “no effect”. For the same substance, in the assay on Ts65Dn mice [2], the olfactory performance entry is “no effect”.
